The structures appear in SMILES notation. Where two headings read alike, the source gives them in different places.

Protein sequences, listed by entry. Tags and fused reporters are not part of them. Residues count along the entry.
UniProt P37136, 32-614 limits assumed: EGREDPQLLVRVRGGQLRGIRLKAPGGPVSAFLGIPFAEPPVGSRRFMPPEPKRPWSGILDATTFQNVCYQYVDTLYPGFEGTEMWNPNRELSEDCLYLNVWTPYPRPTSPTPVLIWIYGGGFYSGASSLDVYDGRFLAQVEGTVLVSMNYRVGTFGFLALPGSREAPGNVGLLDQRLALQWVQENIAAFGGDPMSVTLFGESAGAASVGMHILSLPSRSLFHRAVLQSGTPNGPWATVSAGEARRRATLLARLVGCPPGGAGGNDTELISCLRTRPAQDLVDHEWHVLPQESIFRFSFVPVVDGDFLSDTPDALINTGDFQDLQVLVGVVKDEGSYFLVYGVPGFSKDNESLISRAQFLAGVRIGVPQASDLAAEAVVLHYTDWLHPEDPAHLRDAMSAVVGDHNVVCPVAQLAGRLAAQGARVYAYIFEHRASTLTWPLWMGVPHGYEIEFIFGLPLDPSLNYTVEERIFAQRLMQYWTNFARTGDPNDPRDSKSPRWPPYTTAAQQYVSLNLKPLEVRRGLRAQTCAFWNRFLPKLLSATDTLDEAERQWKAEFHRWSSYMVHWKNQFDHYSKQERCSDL
UniProt Q9WTR4, 1-597: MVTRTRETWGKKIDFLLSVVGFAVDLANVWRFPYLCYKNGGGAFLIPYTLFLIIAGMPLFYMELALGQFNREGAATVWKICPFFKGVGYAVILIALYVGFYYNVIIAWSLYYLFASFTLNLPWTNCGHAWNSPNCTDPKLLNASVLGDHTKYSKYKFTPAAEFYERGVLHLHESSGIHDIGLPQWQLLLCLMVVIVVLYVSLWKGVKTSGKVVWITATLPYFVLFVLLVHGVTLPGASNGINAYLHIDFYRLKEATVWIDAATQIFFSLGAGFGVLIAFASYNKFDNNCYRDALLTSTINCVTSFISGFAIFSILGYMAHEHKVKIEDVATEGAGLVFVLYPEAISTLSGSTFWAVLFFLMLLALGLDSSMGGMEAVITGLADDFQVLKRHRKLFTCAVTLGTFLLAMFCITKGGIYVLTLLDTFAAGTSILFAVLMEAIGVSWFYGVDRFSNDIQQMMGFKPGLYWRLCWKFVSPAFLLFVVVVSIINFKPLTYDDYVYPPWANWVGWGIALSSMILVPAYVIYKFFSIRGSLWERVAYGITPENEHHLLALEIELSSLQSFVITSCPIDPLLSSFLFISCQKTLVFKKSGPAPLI
UniProt P31652, whole entry: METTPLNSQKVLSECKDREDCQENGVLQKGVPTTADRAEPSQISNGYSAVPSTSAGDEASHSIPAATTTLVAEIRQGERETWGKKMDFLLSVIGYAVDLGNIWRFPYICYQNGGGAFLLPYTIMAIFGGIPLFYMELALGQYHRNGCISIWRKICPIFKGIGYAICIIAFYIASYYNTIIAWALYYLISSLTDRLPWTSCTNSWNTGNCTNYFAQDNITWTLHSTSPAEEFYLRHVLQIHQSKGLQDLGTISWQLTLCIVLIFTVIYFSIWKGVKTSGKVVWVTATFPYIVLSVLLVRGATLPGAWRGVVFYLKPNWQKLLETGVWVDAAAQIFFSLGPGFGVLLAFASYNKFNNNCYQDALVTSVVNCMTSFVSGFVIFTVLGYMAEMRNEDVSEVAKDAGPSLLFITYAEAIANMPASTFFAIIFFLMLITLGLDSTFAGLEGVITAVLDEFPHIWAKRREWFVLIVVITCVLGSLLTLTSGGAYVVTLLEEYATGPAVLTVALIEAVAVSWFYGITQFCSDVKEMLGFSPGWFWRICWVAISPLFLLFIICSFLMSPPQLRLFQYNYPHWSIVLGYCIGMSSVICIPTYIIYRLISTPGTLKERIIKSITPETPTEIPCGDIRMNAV

The text below walks through data of patent publication EP0560235B1, “Condensed heterocyclic ketone derivatives, their production and use” (priority 1992, dated 1993).

The target of one experiment is cholinesterase (Rattus norvegicus, UniProt P37136). As to the kind of experiment: Cholinesterase inhibitory activity assayed with (acetyl-[3H])-acetylcholine, S1 fraction of cerebral cortex homogenate. Type of experiment: biochemical. The settings on record: read-out: Acetylcholinesterase inhibitory activity I C50, S1 fraction of male Wistar rat cerebral cortex homogenate, (acetyl-[3H])-acetylcholine substrate, 30 minutes incubation.

In experiment [1] the target is norepinephirine(NE) uptake (Rattus norvegicus, UniProt Q9WTR4). Description: Monoamine uptake into crude synaptosomal preparations (P2) of cerebral cortex and hippocampus, [3H]-NE. The note with it: read-out: Monoamine reuptake inhibitory activity IC50 NE, [3H]-NE 11 nM, 37°C, tested form: 3HCl·3/2H2O. Type of experiment: biochemical, Rats.
The target in another experiment is serotonin (5-HT) uptake (Rattus norvegicus, UniProt P31652). As to the kind of experiment: Monoamine uptake into crude synaptosomal preparations (P2) of cerebral cortex and hippocampus, [3H]-5-HT. The class given is biochemical, Rats. The note with it: read-out: Monoamine reuptake inhibitory activity IC50 5-HT, [3H]-5-HT 10 nM, 37°C, tested form: 3HCl·3/2H2O.

As for `COC(=O)N1CCc2ccc(C(=O)CCN3CCN(Cc4ccccc4)CC3)cc2CC1`, the IC50 at cholinesterase came out at 169 nM.
On to `O=CN1CCCc2cc(C(=O)CCN3CCN(Cc4ccccc4)CC3)ccc21`, for which the IC50 on cholinesterase (tested form: 2HCl, hemihydrate) is 59.9 nM.
On to `O=C(CCN1CCN(Cc2ccccc2)CC1)c1ccc2c(c1)CCNCC2`, for which the IC50 at cholinesterase (tested form: 3HCl·2H2O) is 49.3 nM.
Consider `CC(=O)N1CCc2ccc(C(=O)CCN3CCN(Cc4ccccc4)CC3)cc2CC1`, for which the IC50 on cholinesterase (tested form: 2HCl, dihydrate) came out at 119 nM.
As to `O=C(CCN1CCN(Cc2ccccc2)CC1)c1ccc2c(c1)CCN(Cc1ccccc1)CC2`, on cholinesterase (tested form: 3HCl), the IC50 came to 49 nM.
Regarding `O=CN1CCc2cc(C(=O)CCN3CCN(Cc4ccccc4)CC3)ccc21`, the IC50 came out at 15.2 nM on cholinesterase and 15.2 nM at cholinesterase (tested form: 2HCl, hemihydrate).
On to `O=CN1CCc2ccc(C(=O)CCN3CCN(Cc4ccccc4)CC3)cc2CC1`, for which the IC50 at cholinesterase was determined as 92.8 nM.
Regarding `O=CN1CCCc2ccc(C(=O)CCN3CCN(Cc4ccccc4)CC3)cc21`, the IC50 on cholinesterase (tested form: 2HCl, hemihydrate) came out at 118 nM.
For `O=C(CCN1CCN(C(c2ccccc2)c2ccccc2)CC1)c1ccc2c(c1)CCN(Cc1ccccc1)CC2`, at cholinesterase, the IC50 amounted to 52.6 nM.
Turning to `O=C(CCN1CCN(Cc2ccccc2)CC1)c1ccc2c(c1)CCCN2`, the IC50 at cholinesterase (tested form: 3HCl·H2O) was determined as 163 nM.
Regarding `O=C(CCN1CCN(Cc2ccccc2)CC1)c1ccc2c(c1)CCN(Cc1cccc(O)c1)CC2`, the IC50 stood at 60.2 nM on cholinesterase (tested form: 3HCl·3/2H2O), 359 nM in experiment [1] and 41.3 nM on serotonin (5-HT) uptake.
As for `O=CN1CCCc2ccc(C(=O)CCN3CCN(Cc4ccccc4)CC3)cc2C1`, at cholinesterase (tested form: 2HCl, hemihydrate), the IC50 worked out at 171 nM.
